Values of other authors, collected in patent publication US20230034359A1, “GENERATION OF MATURE KUPFFER CELLS” (AGENCY FOR SCIENCE, TECHNOLOGY AND RESEARCH, priority 2018, published 2023).
“And” between values parts separate entries of the source, which are not always exact repeats. Equal values may be shown once.

Tested on: KCs
Settings: before versus after LPS stimulation, references [47] and [48]; cited from earlier work

lipopolysaccharide [LPS]
fold induction of TNFα: 5 folds and 10 folds
